Patent publication US20090220982A1, “COMPOSITIONS AND METHODS FOR DETERMINING NEPHROTOXICITY” (Achaogen Inc.., priority 2008, published 2009)

Conditions: rat
Text: The rat in vivo assays provided information in the form of acute toxicity, changes in Blood Urea Nitrogen (BUN) and serum creatinine levels over time, as well as histopathology changes in the kidneys of animals sacrificed at the end of the study. Elevation in BUN or serum creatinine is one of the markers routinely monitored in the clinic as an indication of aminoglycoside nephrotoxicity.

Question: With neomycin as the substance, how does the “rank order of relative in vivo nephrotoxicity” value read?
Answer: Its value is “followed by amikacin, neomycin, and gentamicin”.
